Among the data in article PMC5933747 (PLoS ONE, 2018) are IC50 values, retold here.

By UniProt entry, the sequences of proteins in these tests, tags left out.
UniProt Q15858, whole entry: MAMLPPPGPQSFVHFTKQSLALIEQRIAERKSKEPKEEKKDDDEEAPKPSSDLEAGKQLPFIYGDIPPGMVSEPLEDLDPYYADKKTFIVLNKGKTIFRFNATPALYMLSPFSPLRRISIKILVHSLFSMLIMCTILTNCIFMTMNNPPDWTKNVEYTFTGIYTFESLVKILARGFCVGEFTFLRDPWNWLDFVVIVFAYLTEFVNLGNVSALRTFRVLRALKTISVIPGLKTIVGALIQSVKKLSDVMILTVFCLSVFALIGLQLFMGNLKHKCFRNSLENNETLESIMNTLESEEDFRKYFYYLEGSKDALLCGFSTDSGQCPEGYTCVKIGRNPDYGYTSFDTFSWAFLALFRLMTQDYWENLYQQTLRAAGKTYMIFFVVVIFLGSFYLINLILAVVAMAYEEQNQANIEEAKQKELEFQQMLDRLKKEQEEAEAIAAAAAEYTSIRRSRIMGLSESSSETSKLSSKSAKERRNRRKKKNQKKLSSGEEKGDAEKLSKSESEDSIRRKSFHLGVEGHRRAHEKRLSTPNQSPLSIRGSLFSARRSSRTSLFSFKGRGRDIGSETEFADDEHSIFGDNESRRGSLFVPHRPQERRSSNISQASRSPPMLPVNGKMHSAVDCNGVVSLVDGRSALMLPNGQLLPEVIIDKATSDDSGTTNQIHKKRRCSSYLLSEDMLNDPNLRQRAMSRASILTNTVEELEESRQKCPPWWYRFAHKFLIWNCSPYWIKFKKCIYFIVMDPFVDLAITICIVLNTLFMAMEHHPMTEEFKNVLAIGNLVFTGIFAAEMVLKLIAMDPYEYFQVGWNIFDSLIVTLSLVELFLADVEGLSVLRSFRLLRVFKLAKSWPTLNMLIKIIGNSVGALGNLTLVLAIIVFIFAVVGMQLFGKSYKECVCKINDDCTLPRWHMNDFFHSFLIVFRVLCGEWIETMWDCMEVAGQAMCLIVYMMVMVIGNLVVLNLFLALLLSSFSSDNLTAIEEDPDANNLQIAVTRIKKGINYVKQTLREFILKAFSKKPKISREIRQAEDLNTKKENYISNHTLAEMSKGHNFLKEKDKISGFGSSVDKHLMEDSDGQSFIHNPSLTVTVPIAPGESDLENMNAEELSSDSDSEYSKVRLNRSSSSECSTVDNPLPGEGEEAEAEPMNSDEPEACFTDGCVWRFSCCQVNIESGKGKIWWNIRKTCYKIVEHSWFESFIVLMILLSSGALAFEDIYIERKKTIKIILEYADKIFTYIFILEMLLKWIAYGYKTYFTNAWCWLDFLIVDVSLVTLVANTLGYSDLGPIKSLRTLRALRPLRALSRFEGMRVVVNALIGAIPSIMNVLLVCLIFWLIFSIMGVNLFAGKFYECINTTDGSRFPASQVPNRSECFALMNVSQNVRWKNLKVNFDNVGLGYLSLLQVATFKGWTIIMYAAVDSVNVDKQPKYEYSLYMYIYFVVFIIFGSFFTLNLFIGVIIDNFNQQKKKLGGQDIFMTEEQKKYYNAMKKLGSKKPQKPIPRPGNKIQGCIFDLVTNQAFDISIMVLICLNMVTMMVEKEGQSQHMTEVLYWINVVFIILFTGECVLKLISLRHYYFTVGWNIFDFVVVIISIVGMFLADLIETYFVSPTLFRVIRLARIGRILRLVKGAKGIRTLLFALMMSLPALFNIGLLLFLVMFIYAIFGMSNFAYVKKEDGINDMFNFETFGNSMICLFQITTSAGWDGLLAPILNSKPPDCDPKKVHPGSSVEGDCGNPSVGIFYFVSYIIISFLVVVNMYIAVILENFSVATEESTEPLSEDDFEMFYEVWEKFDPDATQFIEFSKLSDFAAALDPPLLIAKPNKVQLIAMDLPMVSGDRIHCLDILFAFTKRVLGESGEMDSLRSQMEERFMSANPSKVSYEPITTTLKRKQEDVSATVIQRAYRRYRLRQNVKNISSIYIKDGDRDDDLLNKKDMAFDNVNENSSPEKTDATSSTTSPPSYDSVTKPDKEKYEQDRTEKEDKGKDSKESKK

In general, IC50 refers to the midpoint of a concentration-inhibition curve.

Format in all cases: cell-based
The target in assay [1] is T1, human NaV1.7 (Homo sapiens, UniProt Q15858). Nature of the assay: Manual whole cell patch clamp, human NaV1.7. The note with it: read-out: NaV1.7 IC50. In general terms: Patch clamp records ionic current or voltage across a cell membrane.
Assay [2] addresses T1, human NaV1.7. The assay can be described thus: IonWorks Quattro (IWQ) electrophysiology, human NaV1.7. Conditions: IWQ platform; single-residue Ala scan of JzTx-V; read-out: Ala mutant IWQ IC50 NaV1.7.
In assay [3] the target is T1, human NaV1.7. The assay can be described thus: PatchXpress (PX) automated electrophysiology, human NaV1.7 in HEK293 cells. Conditions: PX platform, voltage protocol with 20% of channels inactivated, at least ten cells, two to three data points per concentration.

As for JzTx-V(1–29) [reference compound], the half-inhibitory concentration (IC50) on human NaV1.7 [1] came to 150 ± 50 pM; at human NaV1.7 [2] it was 16000 pM; against human NaV1.7 [3], 630 ± 170 pM.
